The source of these data is patent publication US8097722B2 (priority 2008, dated 2012).

pIC50: −log10 of the molar value.

In the assay the target is T1, porcine liver PMPMEase (Sus scrofa, UniProt Q29550).
T1 construct: the supernatant fraction was prepared from 100 g of porcine liver; from tissue; host or cells: porcine liver 40,000×g supernatant
T1 sequence (Q29550 19-566): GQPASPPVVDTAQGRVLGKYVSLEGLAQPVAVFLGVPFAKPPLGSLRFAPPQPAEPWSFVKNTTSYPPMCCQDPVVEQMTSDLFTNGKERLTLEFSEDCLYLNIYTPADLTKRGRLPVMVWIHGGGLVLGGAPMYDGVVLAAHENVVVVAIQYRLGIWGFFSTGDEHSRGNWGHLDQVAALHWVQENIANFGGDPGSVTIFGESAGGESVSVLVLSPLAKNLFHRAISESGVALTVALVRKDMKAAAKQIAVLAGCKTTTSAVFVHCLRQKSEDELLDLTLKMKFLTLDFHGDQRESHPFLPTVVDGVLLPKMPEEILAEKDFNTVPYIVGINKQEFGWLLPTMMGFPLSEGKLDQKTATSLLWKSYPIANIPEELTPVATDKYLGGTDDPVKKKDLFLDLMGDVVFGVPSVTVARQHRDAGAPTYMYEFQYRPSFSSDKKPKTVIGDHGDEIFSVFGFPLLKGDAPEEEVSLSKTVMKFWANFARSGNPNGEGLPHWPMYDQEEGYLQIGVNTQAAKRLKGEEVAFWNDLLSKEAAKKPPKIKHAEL
Kind of assay: PMPMEase inhibition assay of PMSF, GESF and FESF (IC50). It counts as biochemical.

Take `O=S(=O)(F)Cc1ccccc1` [Phenylmethylsulfonyl fluoride, phenylmethylsulfonyl fluoride]: the pIC50 is 4.79.
